One experiment addresses T1, Protein Kinase A (Bos taurus, UniProt P00517).
T1 construct: purified from bovine heart; purchased Upstate Biotech 14-114; host or cells: bovine heart
The experiment can be described thus: Kinase Selectivity Assay Protein Kinase A. The class given is biochemical, bovine. The procedure:
(§1) Assays to test compound inhibition of other kinases were preformed using methods that measure the amount of phosphorylation of a biotinylated peptide substrate. Biotinylated peptide substrates were selected from the literature as appropriate for the enzyme being evaluated. […] Assay conditions vary slightly for each protein kinase, for example, insulin receptor kinase requires 10 mM MnCl2 for activity and Calmodulin-dependent protein kinase requires calmodulin and 10 mM CaCl2. These assay conditions are known in the art. The reaction mixture was dispensed into the wells of a streptavidin coated Flashplate and 1 μl drug stock in 100% DMSO was added to a 100 μl reaction volume resulting in a final concentration of 1% DMSO on the reaction. Enzyme was diluted in 50 mM Tris-HCl pH=8.0, 0.1% BSA and add to each well. The reaction was incubated for one hour at 30° C. in the presence of compound. […] The plate was read on a scintillation counter to determine ^33P-γ-ATP incorporated into the immobilized peptide. […] A maximum and minimum signal for the assay was determined on each plate. The IC50 was calculated from the dose response curve of the percent inhibition of the maximum signal in the assay according to the formula [max signal—background/test compound signal—background (100)=% inhibition] by graphing the percent inhibition against the log concentration of test compound. […]

A further experiment has as its target Insulin Receptor Kinase (Homo sapiens, UniProt P06213). The experiment can be described thus: Kinase Selectivity Assay Insulin Receptor Kinase. The format is biochemical. The procedure:
as §1

On to `Cc1cc(C)c(C(=O)n2nc(Nc3ccc(NS(C)(=O)=O)cc3)nc2N)s1` [Cpd 108, N-[4-[[5-amino-1-[(3,5-dimethyl-2-thienyl)carbonyl]-1H-1,2,4-triazol-3-5 yl]amino]phenyl]-methanesulfonamide], for which the IC50 – broadly, the point on the concentration scale where inhibition reaches its midpoint – against Protein Kinase A was more than 100000 nM. Take `CCc1ccc(C(=O)n2nc(Nc3ccc(S(=O)(=O)Nc4ccccn4)cc3)nc2N)s1` [Cpd 119]: inhibition at Insulin Receptor Kinase was half-maximal at 159 nM (IC50).

The values are drawn from US6924302B2, “Substituted triazole diamine derivatives as kinase inhibitors” (Ortho McNeil Pharmaceutical, Inc., priority 2000, dated 2005).
